Reference: US11767515B2, “Colonic organoids and methods of making and using same” (Children's Hospital Medical Center, priority 2016, dated 2023)

Experiments:
human gut tube spheroids [1] = test: Patterning of human gut tube spheroids (pSMAD1/5/8 and SATB2 staining); type: cell-based
Experimental: Generation of human midgut/hindgut spheroids. Human intestinal organoids were generated and maintained as previously described (Watson et al., 2014). Human embryonic stem cells and induced pluripotent stem cells were grown in feeder-free conditions in six-well Nunclon surface plates (Nunc) coated with Matrigel (basement membrane matrix, BD Biosciences) and maintained in mTESR1 media (Stem Cell Technologies). For induction of definitive endoderm (DE), human ES or iPS cells were passaged with Accutase (Invitrogen) and plated at a density of 100,000 cells per well in a Matrigel-coated, Nunclon surface 24-well plate. […]
(§1) Tissue processing, immunofluorescence and microscopy. […] Images were captured on a Nikon A1 confocal microscope and analyzed using Imaris Imaging Software (Bitplane). […]
(§2) Quantification of immunofluorescence images. Image quantitation of whole embryos was done by splitting images into separated channels and then measuring pixel area using ImageJ (NIH). Pixel area was determined for each channel, the ratio between channels was determined and the ratio for control treated embryos was represented as 100. Quantitation of in vitro and in vivo grown organoids was done on sections from which images were captured as explained above. The number of CDX2, GATA4 and SATB2 positive nuclei were quantified using the spot function in [marls following calibration with human biopsy samples.

human gut tube spheroids [2] = test: HOX/MSX2 gene expression in patterned gut tube spheroids after 3 days (RNA-seq, QPCR); type: cell-based
Experimental: Patterning midgut/hingut spheroids into HIOs and HCOs. Spheroids were collected from 24 well plate and plated in Matrigel (BD). To generate proximal HIOs, spheroids were overlayed with intestinal growth medium (Advanced DMEM/F-12, N2, B27, 15 mM HEPES, 2 mM L-glutamine, penicillin-streptomycin) supplemented with 100 ng/mL EGF (R&D) alone, or 100 ng/mL EGF with 100 ng/ml NOGGIN (R&D). To generate HCOs, spheroids were overlayed with 100 ng/mL EGF plus 100 ng/mL BMP (R&D). For SHH experiments, 1 pM SAG (Tocris), 5 pM SAG or 2.5 pM Cyclopamine (Tocris) were added to control media for initial 3 days after which RNA samples were collected. […]
RNA isolation and QPCR. […] QPCR was performed using Quantitect SYBR® Green PCR kit (Qiagen) and a QuantStudio™ 6 Flex Real-Time PCR System (Applied Biosystems).
RNA-seq sequence assembly abundance estimation. […] The quality of the Illumina sequencing run was evaluated by analyzing FASTQ data for each sample using FastQC version 0.10.1 http://www.bioinformatics.babraham.ac.uk/projects/fastqc to identify features of the data that may indicate quality problems (e.g. low-quality scores, over-represented sequences, inappropriate GC content, etc.). […] Briefly, Applicant aligned reads to the reference transcriptome (UCSC hg19) using TopHat version 2.0.13 and Bowtie version 2.2.5 (Langmead et al., 2009). […]

[3] = system: human intestinal organoids; test: Regional markers in organoids after prolonged in vitro culture (IF, QPCR); type: cell-based
Experimental: Patterning midgut/hingut spheroids into HIOs and HCOs. Spheroids were collected from 24 well plate and plated in Matrigel (BD). To generate proximal HIOs, spheroids were overlayed with intestinal growth medium (Advanced DMEM/F-12, N2, B27, 15 mM HEPES, 2 mM L-glutamine, penicillin-streptomycin) supplemented with 100 ng/mL EGF (R&D) alone, or 100 ng/mL EGF with 100 ng/ml NOGGIN (R&D). To generate HCOs, spheroids were overlayed with 100 ng/mL EGF plus 100 ng/mL BMP (R&D). For SHH experiments, 1 pM SAG (Tocris), 5 pM SAG or 2.5 pM Cyclopamine (Tocris) were added to control media for initial 3 days after which RNA samples were collected. Media was changed at 3 days with only EGF being maintained in the media for all patterning conditions. Media was then changed twice weekly thereafter. HIOs and HCOs were replated in fresh Matrigel every 14 days.
Tissue processing, immunofluorescence and microscopy. Tissues were fixed for 1-3 hours in 4% paraformaldehyde (PFA) on ice depending on the size of the tissue. Organoids and transplant engraftments were frozen in OCT. OCT sections were blocked using donkey serum (5% serum in 1×PBS plus 0.5% Triton-X) for 30 min and incubated with primary antibody overnight at 4° C. Slides were then washed 3× with 1×PBS plus 0.5% Triton-X and incubated in secondary antibody with DAPI in blocking buffer for 2 h at room temperature. See Table 2 for a list of antibodies and respective dilutions. Slides were then washed 2× with 1×PBS plus 0.5% Triton-X followed by a final wash in 1×PBS. Coverslips were then mounted using Fluoromount-G® (SouthernBiotech). Images were captured on a Nikon A1 confocal microscope and analyzed using Imaris Imaging Software (Bitplane). For whole-mount staining, tissues were processed similarly as above and then cleared in Murray's solution. Imaging was performed with a Nikon A1 confocal microscope.
as §2
(§3) RNA isolation and QPCR. RNA was extracted using Nucleospin® RNA extraction kit (Macharey-Nagel) and reverse transcribed into cDNA using Superscript VILO (Invitrogen) according to manufacturer's protocols. QPCR primers were designed using the qPrimerDepot webased tool (primerdepot.nci.nih.gov). QPCR was performed using Quantitect SYBR® Green PCR kit (Qiagen) and a QuantStudio™ 6 Flex Real-Time PCR System (Applied Biosystems).

organoid mesenchyme = test: Patterning markers in isolated organoid mesenchyme cultures (QPCR); type: cell-based, human; settings: mesenchymal cell cultures expanded for 2-3 weeks
Experimental: Growth of organoid mesenchyme. Mesenchymal cells from organoids which attach to the bottom of the 24-well plate attach and grow in 2 dimensions. To expand mesenchymal cells from organoids, DMEM 10% FBS+L-glutamine+ penicillin-streptomycin was added to wells from which organoids had been harvested at 14 days. Media was changed twice weekly for a total of 2-3 weeks until near 100% confluence was achieved.
as §3

[4] = system: IPSC72.3 inducible NEUROG3 line organoids; test: NEUROG3 induction of enteroendocrine cells in organoids; type: cell-based, human; settings: DOX pulse, additional 7 days in culture
Experimental: Generation of NEUROGENIN3 inducible line. To generate a doxycycline inducible NEUROG3 line, Applicant transduced IPSC 72.3 cells with pINDUCER21-NEUROG3 lentivirus and selected using 250 µg/mL of G418. Both the IPSC 72.3 cell line and the inducible NEUROG3 have been described previously (McCracken et al., 2014). Stably transduced cells were differentiated into mid/hindgut spheroids and then patterned into HIOs or HCOs. Spheroids were grown for 28 days and were pulsed with 0.5 ug/mL of doxycycline for 8 hrs. At day 35, organoids were collected and were analyzed by QPCR and IF.

transplanted organoids = test: Transplantation of patterned organoids under the mouse kidney capsule; type: in vivo; settings: under the mouse kidney capsule for 6-10 weeks
Experimental: Animals. Immune-deficient NOD-SCID IL-2Rynu” (NSG) mice, 8-16 weeks old, were used in transplantation experiments (obtained from the Comprehensive Mouse and Cancer Core Facility, Cincinnati, Ohio). Wild type mice were used for studies on mouse fetal intestine. All mice were housed in the animal facility at the Cincinnati Children's Hospital Medical Center (CCHMC). All experiments were performed with the approval of the Institutional Animal Care and Use Committee of CCHMC.
Transplantation of human intestinal organoids. NSG mice were kept on antibiotic chow (275 p.p.m. Sulfamethoxazole and 1.365 p.p.m. Trimethoprim; Test Diet). Food and water was provided ad libitum before and after surgeries. A single HIO, matured in vitro for 28 days, was removed from Matrigel, washed with cold phosphate-buffered saline (DPBS; Gibco), and embedded into purified type I collagen (rat tail collagen; BD Biosciences) 12 hours before surgery to allow for formation of a solidified gel plug. These plugs were then placed into standard growth media overnight in intestinal growth medium (Advanced DMEM/F-12, B27, 15 mM HEPES, 2 mM L-glutamine, penicillin-streptomycin) supplemented with 100 ng/mL EGF (R&D). […]
as §1

[5] = 28-day old organoids after initial 3 day treatment

BMP2: exogenous recombinant human BMP2, BMP activator used to generate HCOs
SATB2 protein in the epithelium (human gut tube spheroids [1]; 3 days of treatment, compared to NOGGIN and control cultures): high levels of SATB2 protein | BMP signaling levels by nuclear pSMAD1/5/8 staining (human gut tube spheroids [1]; spheroids treated for 12 hours, 100 ng/mL): rapid accumulation of pSMAD158 | HOXA13 induction in the presence of the SHH inhibitor Cyclopamine (human gut tube spheroids [2]; BMP+Cyclopamine treated organoids after 3 days): sufficient to induce HOXA13 | HOX gene expression (RNA-seq) (human gut tube spheroids [2]; gut tube spheroids treated for 3 days): down regulation of anterior HOX genes and up regulation of posterior HOX genes | SATB2 expression after re-patterning with BMP2 ([3]; 3-day NOGGIN-treated spheroids shifted to BMP2-containing media for 3 days): did not express SATB2 | Levels of ONECUT1 (marker of proximal small intestine) [3, 5]: absent | SATB2 in the epithelium [3, 5]: broadly expressed in nearly all of the CDX2+ epithelial cells | HOXB13 and HOXD13 posterior patterning ([3]; 28-day old organoids, prolonged culture in vitro): maintained posterior patterning | MUC5B staining (colon-specific goblet cell marker) ([3]; 28-day organoids): present | goblet cells by intracellular MUC2 staining ([3]; at 28 days): high numbers of goblet cells | HOXA13 expression in mesenchyme (organoid mesenchyme): high levels HOXA13 | HOXD3 expression / proximal identity of mesenchyme (organoid mesenchyme): decreased expression of HOXD3 | INSL5 positive cells (colonic EEC marker) after NEUROG3 induction [4]: only observed INSL5 positive cells in BMP2 treated organoids | epithelial morphology of transplanted organoids (transplanted organoids): contained crypts but lacked villi
